The entries are a selection whose mix differs from that of the whole data set. Calls of active or inactive are those of the source.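 Rule for the calls: active = compounds lowering the viability signal whose fitted AC50 is no more than ten times their top tested dose; inconclusive = flat fit with a 30 to 70% drop, or poor fit; inactive = the rest.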

Results on one compound are retold here after PubChem BioAssay AID504323 (Broad Institute, 2011).

The experiment is described as follows: toxicity in U2OS HRE-luc cells, zinc medium, dose response, cytotoxicity control for HIF pathway activator project, zinc-supplemented medium, dry powder (AID 504323). The settings on record: U2OS HRE-luciferase cells, viability toxicity, luminescence; at 38 µM (top of the series). In a few lines: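 Material: human U2OS osteosarcoma cells carrying a 3×HRE-luciferase reporter; input: 6,000 cells/well; buffer or medium: 50 µM zinc sulfate final; timing: 24 h attachment, then 24 h compound exposure at 37 °C; signal: CellTiter-Glo luminescence for cell viability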

Consider `O=c1[nH]c2ccccc2n1C1CCN(Cc2ccc(O)c3ncccc23)CC1`, for which the activity change, negative = toxicity is inactive: -7.17%.
